Where two headings read alike, the source gives them in different places.
Tests used:
[1] = target: T1, human delta opioid receptor (Homo sapiens, UniProt P41143)
SH-SY5Y cells [2] = system: SH-SY5Y cells
SH-SY5Y cells [3] = assay: iPOT DMR profiling of SH-SY5Y cells pretreated with probe molecules
SH-SY5Y cells [4] = system: SH-SY5Y cells; remark: listed apart in the source
[5] = target: T1, human delta opioid receptor; assay type: cell-based; parameters: FLAG; expressed in transfected cells

O=C1/C(=C/c2ccccc2)C[C@@]2(O)[C@H]3Cc4ccc(O)c5c4[C@@]2(CCN3CC2CC2)[C@H]1O5 [BNTX]
DMR agonist activity classification, DOR [1]: off-target | DMR agonist activity classification, SH-SY5Y (SH-SY5Y cells [2]): off-target | DMR signal / agonist activity in native SH-SY5Y cells, in words (SH-SY5Y cells [2]): biphasic DMR response

C[C@@H](NC(=O)[C@@H](N)Cc1ccc(O)cc1)C(=O)NCC(=O)N(C)[C@@H](Cc1ccccc1)C(=O)NCCO [DAMGO]
maximal DMR amplitude [1]: 235±13 pm | DMR agonist activity classification, SH-SY5Y (SH-SY5Y cells [2]): Full agonist | DMR response at 9 min poststimulation (SH-SY5Y cells [2]): 87±9 pm | DMR signal / agonist activity in native SH-SY5Y cells, in words (SH-SY5Y cells [2]): positive DMR signal | maximal DMR response (SH-SY5Y cells [2]): 102±8 pm

CN(C(=O)Cc1ccc(Cl)c(Cl)c1)[C@H](CN1CCCC1)c1cccc(N=C=S)c1 [DIPPA]
effect of CTX pretreatment on ligand DMR (SH-SY5Y cells [3]): potentiated | effect of SB202190 pretreatment on ligand DMR (SH-SY5Y cells [3]): delayed the time to reach its peak | effect of U0126 pretreatment on ligand DMR (SH-SY5Y cells [3]): converted the DMR response to a single phase N-DMR | effect of forskolin pretreatment on ligand DMR (SH-SY5Y cells [3]): potentiated | ligand DMR in PTX-pretreated cells (SH-SY5Y cells [3]): suppressed both the early and late DMR response

CC1(C)SSC(C)(C)[C@@H](NC(=O)[C@@H](N)Cc2ccc(O)cc2)C(=O)NCC(=O)N[C@@H](Cc2ccccc2)C(=O)N[C@H]1C(=O)O [DPDPE]
potency to desensitize DAMGO-induced DMR versus that expected at DOR binding sites (SH-SY5Y cells [4]): lower potency | effect of CTX pretreatment on ligand DMR (SH-SY5Y cells [3]): suppressed | effect of forskolin pretreatment on ligand DMR (SH-SY5Y cells [3]): suppressed | effect of the kinase inhibitors on ligand DMR (SH-SY5Y cells [3]): mostly suppressed

NC(=O)[C@H](Cc1ccccc1)NC(=O)[C@H](Cc1c[nH]c2ccccc12)NC(=O)[C@@H]1CCCN1C(=O)[C@@H](N)Cc1ccc(O)cc1 [Endomorphin-1]
maximal DMR response (SH-SY5Y cells [2]): 102±6 pm

NC(=O)[C@H](Cc1ccccc1)NC(=O)[C@H](Cc1ccccc1)NC(=O)[C@@H]1CCCN1C(=O)[C@@H](N)Cc1ccc(O)cc1 [Endomorphin-2]
DMR agonist activity classification, SH-SY5Y (SH-SY5Y cells [2]): Full agonist | maximal DMR response (SH-SY5Y cells [2]): 102±7 pm

CN(C(=O)Cc1ccc(Cl)c(Cl)c1)[C@H](CN1CCCC1)c1ccccc1 [ICI 199,441]
DMR signal / agonist activity in native SH-SY5Y cells, in words (SH-SY5Y cells [2]): biphasic DMR response

CN(C(=O)Cc1ccc(Cl)c(Cl)c1)C(CN1CCCC1)c1cccc(OCC(=O)O)c1 (centres unmarked) [ICI 204,448]
DMR agonist activity classification, SH-SY5Y (SH-SY5Y cells [2]): Full agonist

C=CCN1CC[C@]23CCCC[C@H]2[C@H]1Cc1ccc(O)cc13 [Levallorphan]
potency to block/desensitize DAMGO-induced DMR versus that expected from reported MOR affinity (SH-SY5Y cells [4]): less potent

Oc1ccc2c3c1O[C@H]1c4c(c5ccccc5n4Cc4ccccc4)C[C@@]4(O)[C@@H](C2)N(CC2CC2)CC[C@]314 [N-Benzylnaltrindole]
effect of LY294002 pretreatment on ligand DMR [5]: insensitive | effect of SB202190 pretreatment on ligand DMR [5]: suppressed | effect of SP600125 pretreatment on ligand DMR [5]: insensitive | effect of U0126 pretreatment on ligand DMR [5]: insensitive

Oc1ccc2c3c1O[C@H]1c4oc5ccccc5c4C[C@@]4(O)[C@@H](C2)N(CC2CC2)CC[C@]314 [Naltriben]
DMR agonist activity in HEK-DOR cells, in words [1]: silent

Oc1ccc2c3c1O[C@H]1c4[nH]c5ccccc5c4C[C@@]4(O)[C@@H](C2)N(CC2CC2)CC[C@]314 [Naltrindole]
maximal DMR amplitude [1]: 82±9 pm

C=CCN1CCC2(C)c3cc(O)ccc3CC1C2C (centres unmarked) [SKF10047]
potency to block/desensitize DAMGO-induced DMR versus that expected from reported MOR affinity (SH-SY5Y cells [4]): greater potency

C=CCN1C[C@H](C)N([C@H](c2ccc(C(=O)N(CC)CC)cc2)c2cccc(OC)c2)C[C@H]1C [SNC 80]
potency to desensitize DAMGO-induced DMR versus that expected at DOR binding sites (SH-SY5Y cells [4]): lower potency

CCCN1C[C@H](C)N([C@H](c2ccc(C(=O)N(CC)CC)cc2)c2cccc(OC)c2)C[C@H]1C [SNC 121]
potency to desensitize DAMGO-induced DMR versus that expected at DOR binding sites (SH-SY5Y cells [4]): lower potency

COc1cccc(C2(O)CCCCC2CN(C)C)c1 (centres unmarked) [Tramadol]
DMR signal / agonist activity in native SH-SY5Y cells, in words (SH-SY5Y cells [2]): inactive

COC(=O)/C=C/C(=O)N[C@@H]1CC[C@@]2(O)[C@H]3Cc4ccc(O)c5c4[C@@]2(CCN3CC2CC2)[C@H]1O5 [β-Funaltrexamine]
potency to block/desensitize DAMGO-induced DMR versus that expected from reported MOR affinity (SH-SY5Y cells [4]): less potent

(Met5)-Enkephalin
DMR agonist activity classification, SH-SY5Y (SH-SY5Y cells [2]): Full agonist

DADLE
DMR agonist activity classification, SH-SY5Y (SH-SY5Y cells [2]): Full agonist

DSLET
DMR agonist activity classification, SH-SY5Y (SH-SY5Y cells [2]): Full agonist

DTLET
DMR agonist activity classification, DOR [1]: Full agonist | DMR agonist activity classification, SH-SY5Y (SH-SY5Y cells [2]): Full agonist

Deltorphin II
potency to desensitize DAMGO-induced DMR versus that expected at DOR binding sites (SH-SY5Y cells [4]): lower potency

Dynorphin A (1–8) (YGGFLRRI; Dynorphin A(1-8); UniProt P01213 207-214, looked up, fragment)
DMR agonist activity classification, SH-SY5Y (SH-SY5Y cells [2]): Full agonist | effect of CTX pretreatment on ligand DMR (SH-SY5Y cells [3]; SH-SY5Y, 400 ng/ml CTX, 20 hr, ligand 10 μM): suppressed

Dynorphin A (2–13)
DMR agonist activity classification, HEK (HEK293 cells): off-target | DMR in parental HEK293 cells, in words (HEK293 cells): noticeable DMR

Dynorphin B
DMR agonist activity classification, SH-SY5Y (SH-SY5Y cells [2]): Full agonist

α-Neoendorphin (YGGFLRKYPK; Alpha-neoendorphin; UniProt P01213 175-184, looked up)
DMR agonist activity classification, DOR [1]: Full agonist | DMR agonist activity classification, SH-SY5Y (SH-SY5Y cells [2]): Full agonist

Reference: paper PMC3602246 (BMC Pharmacology & Toxicology, 2013)
